The record followed here is patent US6562606B1, “Methods and compositions for disrupting the epithelial barrier function” (The Regents of the University of California, priority 1993, dated 2003).

The conditions of this data set: for Plasma Conc. (% dose/ml plasma) / Total Body Conc. (%): lidocaine.
The mark [1] stands for this setting: solitary enhancer Conc 0.15 %, intact skin.
Setting [2] is: solitary enhancer Conc 0.2 %, acetone-treated (prepermeabilized) skin.

Like-named read-outs stand apart in the source and are kept apart here.

As to Bromophenacylbromide, the “Plasma Conc. (% dose/ml plasma)” value under setting [1] was found to be 0.19 ± 0.10 % dose/ml plasma and the “Plasma Conc. (% dose/ml plasma)” value under setting [2] turned out to be 0.84 ± 0.07 % dose/ml plasma. The “Total Body Conc. (%)” value reads like this: under setting [1], 14.73 ± 5.86%; under setting [2], 39.42 ± 11.09%. In addition, the “lidocaine delivery, increase vs vehicle in words” value (solitary agent on intact skin) is “nearly significantly increased lidocaine delivery”; the “lidocaine delivery, increase vs vehicle in words” value (statistical significance vs vehicle, concentrations and skin treatment as in Tables 2-7) is “very significant increases of both lidocaine delivery and water permeability”.
